Data: patent US9125900B2 (priority 2005, dated 2015)

Tests used:
[1] = tested on: boer goats (Capra hircus); assay: serotonergic ligands injected alone, without etorphine, in goats; conditions: 0.5 mg/kg i.v. without etorphine
goats = assay: pilot dose-response study in goats under etorphine immobilization; conditions: 0.5 mg/kg i.v. under etorphine immobilization
[2] = tested on: boer goats (Capra hircus); assay: etorphine immobilization of goats with coadministered serotonergic ligands: recumbency and cardiorespiratory variables; conditions: for heart rate compared with etorphine+water: after the second 10-min interval; for PaCO2 after diprenorphine administration vs preinjection / PaO2 after diprenorphine administration vs preinjection / hemoglobin oxygen saturation after diprenorphine administration vs preinjection: diprenorphine line = etorphine+water trial; for clinical hypoxia (PaO2<60 mmHg and percent arterial haemoglobin saturation <85%): etorphine alone up until 10 min after injection, ligands coadministered with etorphine; for PaO2 compared with etorphine+water: first 10 min of immobilization, P<0.05; for effect on the etorphine-induced biphasic changes of mean arterial pressure / effect on the etorphine-induced decrease in PaO2 / effect on the etorphine-induced decrease in hemoglobin oxygen saturation / effect on the etorphine-induced increase in A-a gradient / effect on the etorphine-induced rise in PaCO2 / effect on the etorphine-induced decline in heart rate / effect on the etorphine-induced decrease in respiratory rate: ligand 0.5 mg/kg i.v. coadministered with etorphine; for effect on the etorphine-induced decline in heart rate: after first 8 min; for effect on the etorphine-induced decrease in respiratory rate: pre- vs postinjection; for time to recumbency: ligand 0.5 mg/kg i.v. injected with etorphine 0.06 mg/kg i.m., mean (SD), P<0.05 vs etorphine+water; for degree of immobilization compared with etorphine+water: ligand 0.5 mg/kg i.v. with etorphine, clinical assessment over 30 min
[3] = diprenorphine 0.096 mg/kg i.v. at 30 min

COc1cc(N)c(Cl)cc1C(=O)NC1CN2CCC1CC2.Cl (racemic) [zacopride, 4-amino-N-1-azabicyclo[2.2.2] oct-3-yl-5-chloro-2-methoxybenzamide hydrochloride] was tested, and the “immobilization or sedation by the ligand alone” value [1] was “Neither zacopride nor 8-OH DPAT immobilized or sedated the goats”, the “effect of midrange dose on respiratory rate and side effects” value (goats) was “increased the respiratory rate in the goats under etorphine immobilization without causing any harmful side effects” and the “heart rate compared with etorphine+water” value [2] was “increased”. The “heart rate after diprenorphine administration vs preinjection” value [2, 3] was “returned to the preinjection rates”, the “mean arterial pressure after diprenorphine administration vs preinjection” value [2, 3] was “lower than preinjection pressure” and the “PaCO2 after diprenorphine administration vs preinjection” value (“PaCO2 … vs preinjection” below) [2, 3] was “did not alter the return of PaCO2 values to preinjection values”. The “PaO2 after diprenorphine administration vs preinjection” value (“PaO2 … vs preinjection” for short) [2, 3] was “Neither zacopride [F(10,70)=5.67, P=0.64] nor 8-OH-DPAT [F(10,70)=5.67, P=0.95] affected the return of PaO2 values to preinjection values”, the “hemoglobin oxygen saturation after diprenorphine administration vs preinjection” value (“hemoglobin oxygen saturation … vs preinjection” for short) [2, 3] was “did not alter the return of saturation to preinjection levels” and the “clinical hypoxia (PaO2<60 mmHg and percent arterial haemoglobin saturation <85%)” value [2] was “remained above levels defining clinical hypoxia”. For the same molecule, the “PaO2 compared with etorphine+water” value [2] was “higher levels of PaO2”, the “PaCO2 compared with etorphine+water and etorphine+8-OH-DPAT” value ([2]; first 20 min of the immobilization period) was “significantly [F(10,70)=3.87, P<0.05] lower” and the “effect on the etorphine-induced biphasic changes of mean arterial pressure” value [2] was “attenuated the biphasic effects of etorphine administration”. The “effect on the etorphine-induced decrease in PaO2” value [2] was “attenuated, but did not fully abolish”, the “effect on the etorphine-induced decrease in hemoglobin oxygen saturation” value [2] was “attenuated the etorphine-induced decrease in saturation” and the “effect on the etorphine-induced increase in A-a gradient” value [2] was “attenuated”. The “effect on the etorphine-induced rise in PaCO2” value [2] was “significantly attenuated the rise in PaCO2”, the “effect on the etorphine-induced decline in heart rate” value [2] was “attenuated” and the “effect on the etorphine-induced decrease in respiratory rate” value [2] was “abolished the decrease in the respiratory rate”. The time to recumbency [2] was 63 (SD 23) s, the “degree of immobilization compared with etorphine+water” value [2] was “increased muscle tone, moved more, and vocalized more” and the “hemoglobin oxygen saturation compared with etorphine+water” value ([2]; over the entire immobilization period) was “significantly (F=7.18, P<0.05) higher”. The “mean arterial pressure throughout the immobilization” value ([2]; zacopride coadministered with etorphine, P=0.025) was “reduced mean arterial pressure throughout the immobilization”.
In the case of CCCN(CCC)C1CCc2cccc(O)c2C1 (racemic) [8-OH-DPAT, 8-hydroxy-2-(di-n-propylamino)tetralin], the “immobilization or sedation by the ligand alone” value [1] is reported as “Neither zacopride nor 8-OH DPAT immobilized or sedated the goats”, the “effect of midrange dose on respiratory rate and side effects” value (goats) is reported as “increased the respiratory rate in the goats under etorphine immobilization without causing any harmful side effects” and the “effects consistent with depression of respiratory neurons” value ([2]; 500 μg/kg with etorphine in goats) is reported as “did not observe any effects consistent with depression of respiratory neurons”. For the same molecule, the “heart rate compared with etorphine+water” value [2] was “decreased”, the “A-a gradient after diprenorphine administration vs preinjection” value [2, 3] was “dropped significantly below preinjection values” and the “heart rate after diprenorphine administration vs preinjection” value [2, 3] was “remained significantly (Student's paired t-test, P<0.0001) lower than the preinjection rate”. For the same molecule, the “mean arterial pressure after diprenorphine administration vs preinjection” value [2, 3] was “significantly higher than preinjection values”, the “PaCO2 … vs preinjection” value [2, 3] was “remained moderately elevated” and the “PaO2 … vs preinjection” value [2, 3] was “Neither zacopride [F(10,70)=5.67, P=0.64] nor 8-OH-DPAT [F(10,70)=5.67, P=0.95] affected the return of PaO2 values to preinjection values”. The “hemoglobin oxygen saturation … vs preinjection” value [2, 3] was “remained moderately depressed”, the “clinical hypoxia (PaO2<60 mmHg and percent arterial haemoglobin saturation <85%)” value [2] was “remained above levels defining clinical hypoxia” and the “mean arterial pressure compared with etorphine+water and etorphine+zacopride” value ([2]; first 10-min interval) was “significantly (F=0.94, P=0.0015) higher”. For the same molecule, the “PaO2 compared with etorphine+water” value [2] was “higher levels of PaO2”, the “effect on the etorphine-induced biphasic changes of mean arterial pressure” value [2] was “enhanced the biphasic pressure changes” and the “effect on the etorphine-induced decrease in PaO2” value [2] was “attenuated, but did not fully abolish”. The “effect on the etorphine-induced decrease in hemoglobin oxygen saturation” value [2] was “attenuated the etorphine-induced decrease in saturation”, the “effect on the etorphine-induced increase in A-a gradient” value [2] was “abolished the increase in the gradient” and the “effect on the etorphine-induced rise in PaCO2” value [2] was “had no beneficial effect”. The “effect on the etorphine-induced decline in heart rate” value [2] was “accentuated”, the “effect on the etorphine-induced decrease in respiratory rate” value [2] was “abolished the decrease in the respiratory rate” and the time to recumbency [2] was 51 (SD 21) s. For the same molecule, the “degree of immobilization compared with etorphine+water” value [2] was “not qualitatively different from that following etorphine administration with water” and the “hemoglobin oxygen saturation compared with etorphine+water” value ([2]; only over the first 10-min interval after administration) was “significantly (F=10.76, P=0.0015) higher”.
With CO[C@]12CC[C@@]3(C[C@@H]1C(C)(C)O)[C@H]1Cc4ccc(O)c5c4[C@@]3(CCN1CC1CC1)[C@H]2O5 the “PaCO2 … vs preinjection” value [2, 3] was “returning to preinjection values”, the “PaO2 … vs preinjection” value [2, 3] was “returned to preinjection values” and the “hemoglobin oxygen saturation … vs preinjection” value [2, 3] was “returned to near preinjection values”. For the same molecule, the “respiratory rate after diprenorphine reversal vs preinjection” value ([2]; etorphine+water trial, diprenorphine 0.096 mg/kg i.v. at 30 min) was “returned to preinjection rates”.
